Measured values reported in ChEMBL document CHEMBL5113525, “Discovery of the Novel 1H-Pyrrolo[2,3-b]pyridine Derivative as a Potent Type II CDK8 Inhibitor against Colorectal Cancer” (J Med Chem, 2022).

Chains of the proteins cited; added tags and fusions are not shown. Lines headed by an entry give the natural chain unless they say otherwise; changes in a name come on top.
UniProt P49336: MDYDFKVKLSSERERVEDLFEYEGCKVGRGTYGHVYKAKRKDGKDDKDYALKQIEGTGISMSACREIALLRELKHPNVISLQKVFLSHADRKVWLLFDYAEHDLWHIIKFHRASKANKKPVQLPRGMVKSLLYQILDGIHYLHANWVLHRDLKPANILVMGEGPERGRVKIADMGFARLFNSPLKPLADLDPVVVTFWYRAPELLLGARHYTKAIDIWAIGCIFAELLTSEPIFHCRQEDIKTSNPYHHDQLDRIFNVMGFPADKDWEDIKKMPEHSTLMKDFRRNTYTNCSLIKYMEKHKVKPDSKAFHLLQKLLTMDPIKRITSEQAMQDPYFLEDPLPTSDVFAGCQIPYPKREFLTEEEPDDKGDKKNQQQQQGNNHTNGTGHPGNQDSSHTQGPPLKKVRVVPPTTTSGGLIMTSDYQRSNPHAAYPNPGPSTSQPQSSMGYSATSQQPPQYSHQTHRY

Molecular target: Cyclin-dependent kinase 8 (Homo sapiens, UniProt P49336)
Assay: Inhibition of CDK8 (unknown origin) at 200 nM incubated in presence of ATP by ADP-Glo kinase assay relative to control

Cc1c(Br)c(Br)c2c3c1nc(N1CCNCC1)n3CCC2 [SEL-120]
inhibition: 75.6%
